Drawing on patent US20200361914A1, “SUBSTITUTED BENZENE AND 6,5-FUSED BICYCLIC HETEROARYL COMPOUNDS” (Epizyme, Inc., priority 2014, published 2020), this text covers IC50 for three molecules.

Protein sequences, listed by entry. Tags and fused reporters are not part of them.
UniProt Q15910, whole entry: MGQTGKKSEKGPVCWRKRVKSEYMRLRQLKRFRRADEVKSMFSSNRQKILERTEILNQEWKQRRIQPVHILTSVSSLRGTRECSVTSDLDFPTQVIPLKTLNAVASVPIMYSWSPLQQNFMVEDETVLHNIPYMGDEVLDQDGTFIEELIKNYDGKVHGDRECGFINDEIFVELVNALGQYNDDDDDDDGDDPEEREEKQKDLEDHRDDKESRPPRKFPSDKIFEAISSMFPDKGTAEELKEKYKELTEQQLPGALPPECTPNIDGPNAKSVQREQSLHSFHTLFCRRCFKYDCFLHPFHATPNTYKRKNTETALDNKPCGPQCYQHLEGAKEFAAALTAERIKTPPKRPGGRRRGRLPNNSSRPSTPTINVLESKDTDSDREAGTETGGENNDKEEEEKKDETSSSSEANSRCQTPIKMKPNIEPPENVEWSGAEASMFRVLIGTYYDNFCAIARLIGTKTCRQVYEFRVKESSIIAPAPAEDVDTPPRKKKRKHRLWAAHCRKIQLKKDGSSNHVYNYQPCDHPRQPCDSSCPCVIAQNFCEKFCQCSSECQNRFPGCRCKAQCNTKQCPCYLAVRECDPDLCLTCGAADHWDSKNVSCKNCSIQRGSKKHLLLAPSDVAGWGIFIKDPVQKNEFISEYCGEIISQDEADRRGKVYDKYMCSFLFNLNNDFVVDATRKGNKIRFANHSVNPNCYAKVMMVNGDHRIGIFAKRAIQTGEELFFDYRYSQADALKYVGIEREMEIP
UniProt Q09028, whole entry partner: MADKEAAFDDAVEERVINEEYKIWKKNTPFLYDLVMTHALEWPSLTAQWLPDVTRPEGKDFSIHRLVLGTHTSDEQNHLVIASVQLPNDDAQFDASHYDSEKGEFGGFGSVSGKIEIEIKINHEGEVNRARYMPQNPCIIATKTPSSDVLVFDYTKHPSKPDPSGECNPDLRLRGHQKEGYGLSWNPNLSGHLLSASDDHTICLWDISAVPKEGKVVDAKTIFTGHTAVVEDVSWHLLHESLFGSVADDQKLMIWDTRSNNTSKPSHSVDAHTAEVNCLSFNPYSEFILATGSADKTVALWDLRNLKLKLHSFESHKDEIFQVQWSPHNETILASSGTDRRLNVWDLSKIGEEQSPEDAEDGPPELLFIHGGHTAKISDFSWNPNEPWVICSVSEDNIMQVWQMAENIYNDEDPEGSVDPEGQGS
UniProt Q15022, whole entry partner: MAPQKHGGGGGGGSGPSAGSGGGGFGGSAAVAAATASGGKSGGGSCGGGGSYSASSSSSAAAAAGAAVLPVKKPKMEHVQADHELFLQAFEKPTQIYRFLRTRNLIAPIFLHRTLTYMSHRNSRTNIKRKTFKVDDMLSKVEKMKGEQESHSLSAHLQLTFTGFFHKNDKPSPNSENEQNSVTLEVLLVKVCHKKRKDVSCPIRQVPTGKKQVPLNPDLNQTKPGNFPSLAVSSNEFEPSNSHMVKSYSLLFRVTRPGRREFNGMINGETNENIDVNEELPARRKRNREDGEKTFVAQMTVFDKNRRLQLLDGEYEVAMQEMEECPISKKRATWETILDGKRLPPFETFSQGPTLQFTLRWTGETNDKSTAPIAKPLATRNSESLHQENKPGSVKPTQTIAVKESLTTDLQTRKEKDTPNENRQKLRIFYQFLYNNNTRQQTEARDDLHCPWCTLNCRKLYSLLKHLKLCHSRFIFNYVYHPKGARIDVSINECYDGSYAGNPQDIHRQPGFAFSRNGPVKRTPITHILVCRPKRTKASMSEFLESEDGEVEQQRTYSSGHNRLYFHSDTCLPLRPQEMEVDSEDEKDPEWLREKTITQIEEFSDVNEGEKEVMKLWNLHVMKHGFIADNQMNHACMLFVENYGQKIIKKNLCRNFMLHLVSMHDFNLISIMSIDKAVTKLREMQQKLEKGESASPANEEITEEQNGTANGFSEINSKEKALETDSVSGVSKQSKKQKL
UniProt O75530, whole entry partner: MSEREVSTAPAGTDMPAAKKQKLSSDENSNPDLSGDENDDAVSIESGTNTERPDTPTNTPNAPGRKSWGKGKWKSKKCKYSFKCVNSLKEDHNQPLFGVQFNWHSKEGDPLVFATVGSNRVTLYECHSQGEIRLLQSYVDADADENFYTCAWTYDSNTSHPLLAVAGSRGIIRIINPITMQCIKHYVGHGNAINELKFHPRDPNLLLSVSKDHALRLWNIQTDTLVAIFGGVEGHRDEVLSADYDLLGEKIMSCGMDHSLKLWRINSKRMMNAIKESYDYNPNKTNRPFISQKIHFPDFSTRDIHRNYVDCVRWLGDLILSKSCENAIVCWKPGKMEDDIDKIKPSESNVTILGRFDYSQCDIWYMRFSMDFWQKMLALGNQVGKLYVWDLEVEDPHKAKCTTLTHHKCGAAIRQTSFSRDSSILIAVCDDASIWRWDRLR

pIC50: −log10 of the molar value.

This assay deals with wild-type PRC2 enzyme (EZH2 WT) (Homo sapiens, UniProt Q15910). Put plainly: PRC2 enzyme assay on peptide substrate, wild-type EZH2. The following applies: read-out: EZH2 WT IC50, H3K27me0 peptide substrate.
Take `Cc1cc(=O)c(CNC(=O)c2c(C)n(C(C)C3CCOCC3)c3ccccc23)c(Cl)[nH]1` (stereo not drawn): the pIC50 was 4.30 to 5.00.
To `CCC(C)n1cc(C)c2c(C(=O)NCc3c(OC)[nH]c(C)cc3=O)cc(-c3ccc(N4CCNCC4)nc3)cc21` (stereo not drawn) belongs 6.00 to 7.00.
Under `COc1[nH]c(C)cc(=O)c1CNC(=O)c1c(C)n(C(C)C2CCOCC2)c2ccccc12` (stereo not drawn) stands 5.00 to 6.00.
